Experimental data published in patent US20020193422A1, “Anthranilamides and methods of their use” (priority 2001, published 2002).

Chains of the proteins cited; added tags and fusions are not shown.
UniProt P22460, whole entry: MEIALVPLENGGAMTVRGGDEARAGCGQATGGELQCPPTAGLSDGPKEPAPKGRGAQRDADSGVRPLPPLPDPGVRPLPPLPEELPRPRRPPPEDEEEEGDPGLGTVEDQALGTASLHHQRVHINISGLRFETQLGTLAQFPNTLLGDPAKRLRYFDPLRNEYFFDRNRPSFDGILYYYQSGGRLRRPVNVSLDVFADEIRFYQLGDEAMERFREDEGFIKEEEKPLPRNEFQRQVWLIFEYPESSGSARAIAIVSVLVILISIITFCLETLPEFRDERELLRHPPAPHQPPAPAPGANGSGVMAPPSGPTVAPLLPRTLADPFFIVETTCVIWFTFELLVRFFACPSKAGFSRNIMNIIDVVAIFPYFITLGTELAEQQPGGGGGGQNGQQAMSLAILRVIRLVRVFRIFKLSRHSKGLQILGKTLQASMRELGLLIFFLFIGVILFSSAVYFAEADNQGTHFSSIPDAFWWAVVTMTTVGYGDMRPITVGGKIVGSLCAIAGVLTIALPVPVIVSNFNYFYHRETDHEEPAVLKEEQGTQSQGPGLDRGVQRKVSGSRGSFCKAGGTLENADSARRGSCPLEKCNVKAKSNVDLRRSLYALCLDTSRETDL

Biological target: Human Kv1.5 channels (Homo sapiens, UniProt P22460)
Assay: Kv1.5 currents in Xenopus oocytes, two-microelectrode voltage clamp
Details: human Kv1.5 expressed in Xenopus laevis oocytes; 500 ms voltage jumps to 0 mV and 40 mV; room temperature; percentage inhibition of control current fitted with Hill equation
Description: Human Kv1.5 channels were expressed in xenopus oocytes. For this purpose, oocytes from Xenopus laevis were first isolated and defolliculated. Kv1.5 coding RNA synthesized in vitro was then injected into these oocytes. After Kv1.5 protein expression for 1-7 days, Kv1.5 currents were measured in the oocytes using the two-microelectrode voltage clamp technique. The Kv1.5 channels were activated here with 500 ms voltage jumps to 0 mV and 40 mV. The bath was flushed with a solution of the following: NaCl 96 mM, KCl 2 mM, CaCl2 1.8 mM, MgCl2 1 mM, HEPES 5 mM (titrated with NaOH to pH 7.4). These experiments were carried out at room temperature. The following were used for data collection and analysis: Geneclamp amplifier (Axon Instruments, Foster City, USA) and MacLab D/A converter and software (ADInstruments, Castle Hill, Australia). The compounds according to the invention were tested by adding them to the bath solution in different concentrations. The effects of the compounds were calculated as percentage inhibition of the Kv1.5 control current which was obtained when no compound was added to the solution. The data were then extrapolated using the Hill equation, in order to determine the inhibitory concentrations (IC50) for the respective compounds.

| SMILES | IC50 [µM] |
| --- | --- |
| COc1ccc(NS(=O)(=O)c2ccc(C)cc2)c(C(=O)NCCc2ccco2)c1 | 3.2 |
| COc1ccc(NS(=O)(=O)c2ccc(C)cc2)c(C(=O)NCCc2ccccn2)c1 | 8 |
| CCN(C(=O)c1ccccc1NS(=O)(=O)c1ccc(OC)c(OC)c1)c1ccccc1 | 3.5 |
